{
  "source": "paper PMC8919062",
  "about": "(European journal of medicinal chemistry, 2021)",
  "key": {"[1]": {"system": "Class I/IIb HDACs", "test": "class-distinguishing fluorogenic substrates whole-cell assay, class I/IIb, HT-29", "assay_type": "cell-based", "settings": "HT-29 whole cell assay, control"}, "[2]": {"system": "Class IIa HDACs", "test": "class-distinguishing fluorogenic substrates whole-cell assay, class IIa, HT-29", "assay_type": "cell-based", "settings": "HT-29 whole cell assay, control"}},
  "data": [
    {"smiles": "O=C(CCCCCCC(=O)Nc1ccccc1)NO", "note": "[SAHA]", "values": [
      {"measurement": "activity against class-I/IIb HDACs", "setting": "[1]", "result": "modest activity"},
      {"measurement": "activity against class-IIa HDACs", "setting": "[2]", "result": "not active"}
    ]}
  ]
}
